Assay results: PubChem BioAssay (EPA / NIEHS)
The list shows a part of the results, in another mix than the full data. The source made the active and inactive calls. Rule for the calls: active = hit-call score of the fitted dose curve at least 0.9, where 1 is the maximum; inactive = score below 0.9.

Protein sequences, listed by entry. Tags and fused reporters are not part of them. Lines headed by an entry give the natural chain unless they say otherwise; changes in a name come on top.
UniProt P17676: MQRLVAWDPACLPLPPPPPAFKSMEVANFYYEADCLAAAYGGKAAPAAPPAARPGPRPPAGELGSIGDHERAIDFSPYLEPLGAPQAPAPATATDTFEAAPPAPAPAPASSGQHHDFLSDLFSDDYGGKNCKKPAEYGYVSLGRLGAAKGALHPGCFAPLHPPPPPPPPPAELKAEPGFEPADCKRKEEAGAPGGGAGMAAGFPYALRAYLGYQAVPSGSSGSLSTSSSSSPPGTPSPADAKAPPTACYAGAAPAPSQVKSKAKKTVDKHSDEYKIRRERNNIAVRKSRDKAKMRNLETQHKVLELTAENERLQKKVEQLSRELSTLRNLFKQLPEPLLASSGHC
UniProt P35869: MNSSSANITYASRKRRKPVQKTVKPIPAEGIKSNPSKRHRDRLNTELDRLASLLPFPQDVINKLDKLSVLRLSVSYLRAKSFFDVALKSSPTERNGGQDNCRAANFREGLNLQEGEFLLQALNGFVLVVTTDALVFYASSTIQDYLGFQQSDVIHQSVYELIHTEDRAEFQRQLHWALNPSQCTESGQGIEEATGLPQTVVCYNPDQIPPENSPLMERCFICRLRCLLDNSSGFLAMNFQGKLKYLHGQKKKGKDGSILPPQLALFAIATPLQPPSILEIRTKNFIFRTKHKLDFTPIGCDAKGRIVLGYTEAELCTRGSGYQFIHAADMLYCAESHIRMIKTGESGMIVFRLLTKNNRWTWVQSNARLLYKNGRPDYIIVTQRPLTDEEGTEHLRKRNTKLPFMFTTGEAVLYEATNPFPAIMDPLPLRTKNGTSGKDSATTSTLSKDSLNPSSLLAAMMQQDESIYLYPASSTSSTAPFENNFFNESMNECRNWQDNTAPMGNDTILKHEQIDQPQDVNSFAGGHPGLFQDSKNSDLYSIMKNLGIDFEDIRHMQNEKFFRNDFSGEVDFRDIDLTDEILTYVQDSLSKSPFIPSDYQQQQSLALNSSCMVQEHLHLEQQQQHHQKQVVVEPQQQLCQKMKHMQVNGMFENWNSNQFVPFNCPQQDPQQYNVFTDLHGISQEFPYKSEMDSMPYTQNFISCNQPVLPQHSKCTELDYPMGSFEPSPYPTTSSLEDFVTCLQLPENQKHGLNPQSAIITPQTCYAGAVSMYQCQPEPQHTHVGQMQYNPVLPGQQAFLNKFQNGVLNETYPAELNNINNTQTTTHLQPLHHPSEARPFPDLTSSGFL
UniProt P10276, whole entry, looked up: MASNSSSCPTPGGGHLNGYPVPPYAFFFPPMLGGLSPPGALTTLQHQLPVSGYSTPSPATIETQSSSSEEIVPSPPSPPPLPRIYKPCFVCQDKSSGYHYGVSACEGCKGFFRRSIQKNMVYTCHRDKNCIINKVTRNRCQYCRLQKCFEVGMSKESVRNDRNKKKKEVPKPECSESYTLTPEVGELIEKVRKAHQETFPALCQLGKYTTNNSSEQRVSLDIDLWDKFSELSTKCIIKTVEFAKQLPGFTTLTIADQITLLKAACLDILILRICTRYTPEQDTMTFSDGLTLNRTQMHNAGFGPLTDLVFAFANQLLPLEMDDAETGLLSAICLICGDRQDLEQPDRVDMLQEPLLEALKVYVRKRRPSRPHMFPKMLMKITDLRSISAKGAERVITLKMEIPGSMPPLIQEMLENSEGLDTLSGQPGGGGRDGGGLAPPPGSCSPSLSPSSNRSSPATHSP
UniProt Q01094: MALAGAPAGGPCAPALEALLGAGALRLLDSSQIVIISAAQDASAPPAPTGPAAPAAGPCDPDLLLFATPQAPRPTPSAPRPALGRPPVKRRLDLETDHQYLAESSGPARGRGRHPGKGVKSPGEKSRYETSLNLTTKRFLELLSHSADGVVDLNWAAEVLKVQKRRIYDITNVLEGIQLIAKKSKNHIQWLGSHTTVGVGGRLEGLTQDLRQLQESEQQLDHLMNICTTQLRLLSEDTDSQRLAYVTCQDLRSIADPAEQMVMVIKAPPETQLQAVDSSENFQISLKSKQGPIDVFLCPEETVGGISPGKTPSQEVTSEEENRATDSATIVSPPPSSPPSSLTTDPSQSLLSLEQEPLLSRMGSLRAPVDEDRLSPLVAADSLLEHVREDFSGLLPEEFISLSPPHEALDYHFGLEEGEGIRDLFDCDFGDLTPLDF
UniProt Q9Y261: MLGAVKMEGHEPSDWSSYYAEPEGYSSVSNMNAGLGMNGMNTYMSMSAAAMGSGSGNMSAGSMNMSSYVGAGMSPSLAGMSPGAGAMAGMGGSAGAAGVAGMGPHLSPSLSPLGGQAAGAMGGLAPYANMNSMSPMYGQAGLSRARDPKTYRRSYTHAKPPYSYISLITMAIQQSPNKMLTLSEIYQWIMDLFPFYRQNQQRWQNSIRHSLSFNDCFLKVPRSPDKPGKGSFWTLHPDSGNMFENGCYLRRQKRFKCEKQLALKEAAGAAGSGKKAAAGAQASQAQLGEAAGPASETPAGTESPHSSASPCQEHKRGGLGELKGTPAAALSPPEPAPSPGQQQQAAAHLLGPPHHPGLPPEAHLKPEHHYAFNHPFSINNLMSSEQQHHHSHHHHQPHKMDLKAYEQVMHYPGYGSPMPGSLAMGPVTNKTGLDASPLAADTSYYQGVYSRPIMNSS
UniProt Q96RI1: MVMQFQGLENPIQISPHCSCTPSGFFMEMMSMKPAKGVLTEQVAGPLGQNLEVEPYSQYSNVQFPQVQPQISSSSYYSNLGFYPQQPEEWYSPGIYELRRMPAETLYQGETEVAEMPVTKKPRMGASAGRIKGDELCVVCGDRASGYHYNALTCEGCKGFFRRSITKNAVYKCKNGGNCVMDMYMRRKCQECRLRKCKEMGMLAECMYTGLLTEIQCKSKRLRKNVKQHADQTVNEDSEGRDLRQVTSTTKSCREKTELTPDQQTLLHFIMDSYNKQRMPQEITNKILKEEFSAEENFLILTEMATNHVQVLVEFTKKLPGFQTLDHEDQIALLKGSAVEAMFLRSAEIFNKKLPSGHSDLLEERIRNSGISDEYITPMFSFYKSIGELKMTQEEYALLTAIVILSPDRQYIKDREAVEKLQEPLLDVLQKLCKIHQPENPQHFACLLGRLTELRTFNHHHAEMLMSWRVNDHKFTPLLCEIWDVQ

Key:
[1] = ATG_CRE_CIS: Attagene CIS-FACTORIAL HepG2 Assay for human cAMP Responsive Element (CRE) binding protein 3 (AID 2282926); conditions: HepG2 CRE cis-reporter, Attagene multiplexed mRNA; actives raise or lower the signal
Procedure, shortened: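 Endogenous transcription factor activity read via CRE-regulated reporter transcripts in transfected HepG2 cells. After 24 h exposure, RNA was reverse-transcribed, amplified, fluorescently labelled and sized by capillary electrophoresis; gain or loss fitted against DMSO.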

[2] = molecular target: CCAAT/enhancer-binding protein beta (Homo sapiens) (UniProt P17676); assay: ATG_C_EBP_CIS: Attagene CIS-FACTORIAL HepG2 Assay for human CCAAT/Enhancer Binding Protein (C/EBP) beta (AID 2282927); conditions: HepG2 Attagene cis-factorial transcription factor reporter; actives raise or lower the signal
Procedure, shortened: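 RT-PCR/capillary electrophoresis fluorescence of reporter mRNA, 24 h post-dose, in HepG2 cells carrying transfected cis-promoter reporter units. Bidirectional curve fitting against DMSO baseline captures gain or loss of signal.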

[3] = ATG_CMV_CIS: Attagene CIS-FACTORIAL HepG2 Assay for human CMV (Internal Marker) (AID 2282928); conditions: HepG2 CMV promoter reporter, transcription factor profiling; actives raise or lower the signal;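 note: endpoint acts as a background internal control marker rather than a target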
Procedure, shortened: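 Readout: fluorescent reporter cDNA fragments separated by capillary electrophoresis after RT-PCR and HpaI cut. Cells: HepG2 carrying transfected cis-promoter reporter constructs, dosed 24 h. Endpoint serves as background internal-marker control, fit bidirectionally versus DMSO.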

[4] = ATG_DR4_LXR_CIS: Attagene CIS-FACTORIAL HepG2 Assay for human Liver X Receptor (LXR), DR4 submotif (AID 2282929); conditions: HepG2 Attagene DR4 cis-reporter, mRNA transcription; actives raise or lower the signal
Procedure, shortened: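 Total RNA from 24 h-treated, MRTU-transfected HepG2 cells underwent reverse transcription, PCR, fluorescent primer extension and restriction digestion before capillary electrophoresis. Both increases and decreases in reporter signal were fitted against DMSO.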

[5] = molecular target: Aryl hydrocarbon receptor (Homo sapiens) (UniProt P35869); assay: ATG_Ahr_CIS: Attagene CIS-FACTORIAL HepG2 Assay for human Aryl Hydrocarbon Receptor (Ahr) (AID 2282930); conditions: HepG2 AhR cis-factorial reporter transcription; actives raise or lower the signal
Procedure, shortened: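 HepG2 cells transiently transfected with cis-element-driven multiplexed reporter transcription units; endogenous transcription factor activity measured as reporter mRNA 24 h after dosing. RT-PCR, 6-FAM labelling, HpaI digestion, capillary electrophoresis; bidirectional fitting versus DMSO baseline.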

[6] = ATG_AP_2_CIS: Attagene CIS-FACTORIAL HepG2 Assay for human Activator Protein 2 (AP-2) (AID 2282932); conditions: HepG2 AP-2 cis-reporter, Attagene transcription factor profiling; actives raise or lower the signal
Procedure, shortened: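 Assay in transfected HepG2 with promoter-regulated reporters, 24 h incubation after dosing. Signal is reporter mRNA fluorescence (RT-PCR, capillary electrophoresis), analysed for both increases and decreases relative to DMSO controls.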

[7] = ATG_BRE_CIS: Attagene CIS-FACTORIAL HepG2 Assay for human Bone Morphogenetic Protein (BMP) Response Element (BRE) (AID 2282933); conditions: HepG2 BMP response element reporter, Attagene transcription factor profiling; actives raise or lower the signal
Procedure, shortened: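 Multiplexed cis-reporter assay, HepG2, 24 h exposure. mRNA from reporter units quantified via RT-PCR/CE; DMSO baseline; bidirectional curve fit.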

[8] = molecular target: Retinoic acid receptor alpha (Homo sapiens) (UniProt P10276); assay: ATG_DR5_RAR_CIS: Attagene CIS-FACTORIAL HepG2 Assay for human Retinoic Acid Receptor Alpha (RARE), DR5 submotif (AID 2282934); conditions: HepG2 Attagene cis-factorial RARE DR5 reporter, mRNA; actives raise or lower the signal;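 for AC50: reporter responds to endogenous RAR alpha beta and gamma in HepG2 not RARA alone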
[9] = molecular target: Transcription factor E2F1 (Homo sapiens) (UniProt Q01094); assay: ATG_E2F_CIS: Attagene CIS-FACTORIAL HepG2 Assay for human E2F Transcription Factor 1 (AID 2282935); conditions: HepG2 Attagene cis-reporter, E2F reporter RNA transcripts; actives raise or lower the signal
Procedure, shortened: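 In this cis-factorial format, endogenous factor activity drives transfected reporters in HepG2; transcripts collected at 24 h are quantified by fluorescence after RT-PCR and capillary separation.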

[10] = ATG_E_Box_CIS: Attagene CIS-FACTORIAL HepG2 Assay for human Enhancer Box (E-box) (AID 2282936); conditions: HepG2 E-box cis-reporter transcription, actives raise or lower the signal
Procedure, shortened: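 Measured 24 h post-dosing in HepG2 cells transfected with multiple cis-regulated reporter units, signal being reporter mRNA induction detected by fluorescent RT-PCR with capillary electrophoresis; gain or loss fitted against DMSO.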

[11] = ATG_EGR_CIS: Attagene CIS-FACTORIAL HepG2 Assay for human Early Growth Response 1 (EGR1) (AID 2282938); conditions: HepG2 Attagene CIS-FACTORIAL EGR reporter mRNA; actives raise or lower the signal
Procedure, shortened: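 After a 24 h treatment of transiently transfected HepG2 cells, total RNA was reverse-transcribed and reporter sequences PCR-amplified, labelled and run on capillary electrophoresis. Reporters sit under cis-regulatory promoters sensing endogenous factors.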

[12] = ATG_M_19_CIS: Attagene CIS-FACTORIAL HepG2 Assay for M19 Transcription Factor (Internal Marker) (AID 2282939); conditions: HepG2 Attagene CIS-FACTORIAL M19 internal marker reporter; actives raise or lower the signal
Procedure, shortened: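 Signals come from fluorescence of labelled reporter-specific PCR fragments resolved by capillary electrophoresis, following 24 h treatment of HepG2 cells transfected with cis-promoter reporter units; activity was fitted in both directions relative to DMSO.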

[13] = ATG_ERE_CIS: Attagene CIS-FACTORIAL HepG2 Assay for Estrogen Response Element (ERE) (AID 2282940); conditions: HepG2 ERE cis-reporter, Attagene RNA transcript; actives raise or lower the signal
Procedure, shortened: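 Fluorescence of capillary-separated, FAM-labelled reporter cDNA fragments indicates reporter mRNA levels in HepG2 cells exposed to chemicals for 24 h. Transient transfection with cis-regulated units; data fitted in both directions against DMSO.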

[14] = ATG_Ets_CIS: Attagene CIS-FACTORIAL HepG2 Assay for human Erythroblast Transformation Specific (ETS) (AID 2282941); conditions: HepG2 ETS cis-reporter transcription, actives raise or lower the signal
Procedure, shortened: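 RT-PCR/capillary electrophoresis fluorescence read-out of reporter mRNA; HepG2 transient multi-reporter transfection; 24 h compound exposure; gain or loss of signal fitted bidirectionally relative to DMSO.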

[15] = molecular target: Hepatocyte nuclear factor 3-beta (Homo sapiens) (UniProt Q9Y261); assay: ATG_FoxA2_CIS: Attagene CIS-FACTORIAL HepG2 Assay for human Forkhead box A2 (FOXA2) (AID 2282942); conditions: HepG2 cis-reporter transcription factor activity, 24 h; actives raise or lower the signal
Procedure, shortened: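 24 h dosing of HepG2 bearing cis-reporter constructs; mRNA readout by RT-PCR/CE fluorescence; bidirectional fit, DMSO baseline.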

[16] = ATG_GATA_CIS: Attagene CIS-FACTORIAL HepG2 Assay for human GATA Binding Protein (AID 2282944); conditions: HepG2 GATA cis-element reporter, Attagene multiplex mRNA; actives raise or lower the signal
Procedure, shortened: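 After transfecting HepG2 cells with multiple cis-regulated reporter units, chemicals are dosed for 24 h; isolated RNA undergoes RT-PCR and fluorescent labeling before capillary electrophoresis, with activity expressed against DMSO.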

[17] = ATG_GLI_CIS: Attagene CIS-FACTORIAL HepG2 Assay for human Zinc Finger Protein GLI1 (AID 2282945); conditions: HepG2, Attagene cis-factorial reporter mRNA, GLI element; actives raise or lower the signal
Procedure, shortened: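 HepG2 cells transiently transfected with cis-promoter multiplexed reporter units report endogenous transcription factor activity. After 24 h chemical exposure, reporter mRNA was quantified by RT-PCR, 6-FAM labelling, HpaI digestion and capillary electrophoresis, with bidirectional fitting against DMSO.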

[18] = ATG_GRE_CIS: Attagene CIS-FACTORIAL HepG2 Assay for human Glucocorticoid Response Elements (GRE) (AID 2282947); conditions: HepG2 GRE cis-reporter, Attagene multiplex mRNA; actives raise or lower the signal
Procedure, shortened: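 HepG2, transient cis-reporter transfection, 24 h. Reporter mRNA: RT-PCR then CE, fluorescence. Fit both directions vs DMSO.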

[19] = molecular target: Bile acid receptor (Homo sapiens) (UniProt Q96RI1); assay: ATG_IR1_CIS: Attagene CIS-FACTORIAL HepG2 Assay for human Nuclear Receptor Subfamily 1 Group H Member 4 (NR1H4), IR1 submotif (AID 2282946); conditions: IR1 reporter transcription, actives raise or lower the signal
Procedure, shortened: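 Readout: reporter transcript levels by RT-PCR with fluorescent capillary electrophoresis, from HepG2 cells transiently transfected with multiplexed cis-regulated reporters and dosed 24 h. Gain- or loss-of-signal fitted versus DMSO negative control.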

[20] = APR_HepG2_NuclearSize_72hr: Apredica 72-hour HepG2 Assay for Nuclear Size (AID 2282925); conditions: high-content imaging, actives raise or lower the signal
Procedure, shortened: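 Compounds (0.39–200 uM, final DMSO 0.5%) were applied to HepG2 for 72 hr. Cells were then formaldehyde-fixed, permeabilized and labelled with Hoechst 33342. Nuclear diameter was quantified from six images per well.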

Measured: AC50

CCCCC(CC)CO[P+](=O)OCC(CC)CCCC (centres undefined)
not listed: [19] | [20]
inactive: all other assays above

O=[N+]([O-])c1ccc([N+](=O)[O-])cc1
active: [3] 145 µM | [4] 41.4 µM | [5] 35.9 µM | [9] 144 µM | [10] 26 µM | [17] 61 µM | [19] 26.1 µM
not listed: [20]
inactive: all other assays above

O=[p+]1oc2ccccc2c2ccccc21 (centres undefined)
not listed: [20]
inactive: all other assays above

CC(C)CCCCCCCOP(OCCCCCCCC(C)C)Oc1ccccc1
active: [4] 125 µM | [13] 100 µM
not listed: [19] | [20]
inactive: all other assays above

CC(C)OP(=S)(OC(C)C)SCCNS(=O)(=O)c1ccccc1
not listed: [8] | [13] | [19]
inactive: all other assays above

O=[As]c1ccccc1 (centres undefined)
inactive: [2] | [6] | [9] | [12] | [13] | [18]
active: [3] 0.271 µM | [4] 0.154 µM | [5] 0.23 µM | [7] 0.744 µM | [8] 0.524 µM | [10] 0.626 µM | [14] 0.412 µM | [15] 0.65 µM | [16] 0.237 µM | [19] 0.333 µM

Cc1cc([N+](=O)[O-])cc([N+](=O)[O-])c1O
active: [1] 68.3 µM | [2] 74.1 µM | [5] 122 µM | [7] 100 µM
inactive: all other assays above

CN(C(=O)Cc1cccc2occc12)[C@H]1CC[C@@]2(CCCO2)C[C@@H]1N1CCCC1
active: [3] 79.1 µM | [10] 124 µM
inactive: all other assays above

N#CSc1ccc([N+](=O)[O-])cc1[N+](=O)[O-]
active: [5] 2.07 µM
not listed: [2] | [4] | [10] | [13] | [19] | [20]
inactive: all other assays above

ClP(Cl)c1ccccc1
not listed: [5] | [19] | [20]
inactive: all other assays above

O=P(Cl)(Oc1ccccc1)Oc1ccccc1
not listed: [8] | [19] | [20]
inactive: all other assays above

O=C(Cl)Oc1ccccc1
active: [12] 0.0845 µM
not listed: [20]
inactive: all other assays above

O=C(Cl)OCCOC(=O)Cl
not listed: [13] | [20]
inactive: all other assays above

O=C1C2CC=CCC2C(=O)N1SC(Cl)(Cl)C(Cl)Cl (centres undefined)
not listed: [13]
inactive: all other assays above

CCCCOP(OCCCC)OCCCC
not listed: [20]
inactive: all other assays above

CCCCO[P+](=O)OCCCC
not listed: [8] | [18] | [19] | [20]
inactive: all other assays above

O=[P+](Oc1ccccc1)Oc1ccccc1
active: [5] 0.0995 µM | [13] 6.02 µM
not listed: [19] | [20]
inactive: all other assays above
